Measurements published in PubChem BioAssay (NCATS).
Where “and” joins values, the source holds several entries; their conditions need not be identical. Identical values can stand only once. Only a part is listed here, and it is no random draw. Results filed as inconclusive are left out. For some assays here: Potency and affinity values are given separately. Calls of active or inactive are those of the source. Unless noted, the call rests on the fitted dose curve; in most records, active means well fitted curve in either direction with a large enough effect (not every such curve was filed as active); inconclusive means small, poorly fitted or top-dose-only effect, or another doubt; inactive means flat fitted curve, though single readings scatter.

The chains behind the UniProt entries cited, without tags or fusion partners. Where a name states a change or a piece, a line headed by the entry shows the natural chain unless it says otherwise.
UniProt Q07343: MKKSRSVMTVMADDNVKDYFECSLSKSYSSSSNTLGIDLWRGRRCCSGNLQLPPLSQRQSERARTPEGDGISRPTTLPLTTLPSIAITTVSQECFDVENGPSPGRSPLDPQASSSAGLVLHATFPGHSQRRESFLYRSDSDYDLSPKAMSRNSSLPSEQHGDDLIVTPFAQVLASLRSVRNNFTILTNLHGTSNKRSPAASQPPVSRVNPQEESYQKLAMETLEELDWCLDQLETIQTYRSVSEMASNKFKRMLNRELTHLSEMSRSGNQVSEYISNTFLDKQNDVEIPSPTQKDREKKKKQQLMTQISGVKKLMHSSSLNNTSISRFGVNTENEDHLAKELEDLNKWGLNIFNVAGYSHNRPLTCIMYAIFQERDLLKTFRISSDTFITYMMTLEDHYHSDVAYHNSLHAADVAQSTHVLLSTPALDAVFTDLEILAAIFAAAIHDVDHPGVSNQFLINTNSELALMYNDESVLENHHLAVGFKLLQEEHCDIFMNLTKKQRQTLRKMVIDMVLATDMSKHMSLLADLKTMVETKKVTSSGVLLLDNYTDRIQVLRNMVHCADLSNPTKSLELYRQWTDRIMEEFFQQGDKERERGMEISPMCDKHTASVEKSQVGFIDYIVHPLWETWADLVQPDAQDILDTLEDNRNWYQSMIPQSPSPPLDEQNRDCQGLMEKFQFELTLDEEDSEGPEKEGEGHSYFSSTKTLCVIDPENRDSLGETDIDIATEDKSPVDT
UniProt P10828: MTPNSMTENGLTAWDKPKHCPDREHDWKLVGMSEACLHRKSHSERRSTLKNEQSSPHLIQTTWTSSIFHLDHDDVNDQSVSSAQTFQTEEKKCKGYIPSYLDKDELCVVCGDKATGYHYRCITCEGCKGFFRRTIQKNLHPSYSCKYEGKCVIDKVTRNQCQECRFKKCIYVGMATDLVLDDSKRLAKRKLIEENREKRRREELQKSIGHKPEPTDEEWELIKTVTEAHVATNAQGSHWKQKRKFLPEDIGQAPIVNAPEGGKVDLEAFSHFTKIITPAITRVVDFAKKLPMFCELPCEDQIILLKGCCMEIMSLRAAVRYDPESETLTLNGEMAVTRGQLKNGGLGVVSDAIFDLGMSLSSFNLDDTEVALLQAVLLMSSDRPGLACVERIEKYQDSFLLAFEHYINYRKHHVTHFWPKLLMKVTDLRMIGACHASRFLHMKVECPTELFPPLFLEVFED
UniProt P19793: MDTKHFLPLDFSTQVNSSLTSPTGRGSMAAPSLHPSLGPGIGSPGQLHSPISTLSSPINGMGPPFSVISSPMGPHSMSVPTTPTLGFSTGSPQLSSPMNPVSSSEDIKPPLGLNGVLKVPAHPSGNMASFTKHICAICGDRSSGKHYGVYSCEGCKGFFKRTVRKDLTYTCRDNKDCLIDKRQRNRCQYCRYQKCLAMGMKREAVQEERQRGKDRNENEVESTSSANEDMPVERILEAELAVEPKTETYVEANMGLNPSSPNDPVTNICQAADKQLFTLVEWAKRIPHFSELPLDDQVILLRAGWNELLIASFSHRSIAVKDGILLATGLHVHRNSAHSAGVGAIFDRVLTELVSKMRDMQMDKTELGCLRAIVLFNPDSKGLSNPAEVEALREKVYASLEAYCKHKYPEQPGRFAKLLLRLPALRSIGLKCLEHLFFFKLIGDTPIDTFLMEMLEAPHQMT
UniProt Q07869: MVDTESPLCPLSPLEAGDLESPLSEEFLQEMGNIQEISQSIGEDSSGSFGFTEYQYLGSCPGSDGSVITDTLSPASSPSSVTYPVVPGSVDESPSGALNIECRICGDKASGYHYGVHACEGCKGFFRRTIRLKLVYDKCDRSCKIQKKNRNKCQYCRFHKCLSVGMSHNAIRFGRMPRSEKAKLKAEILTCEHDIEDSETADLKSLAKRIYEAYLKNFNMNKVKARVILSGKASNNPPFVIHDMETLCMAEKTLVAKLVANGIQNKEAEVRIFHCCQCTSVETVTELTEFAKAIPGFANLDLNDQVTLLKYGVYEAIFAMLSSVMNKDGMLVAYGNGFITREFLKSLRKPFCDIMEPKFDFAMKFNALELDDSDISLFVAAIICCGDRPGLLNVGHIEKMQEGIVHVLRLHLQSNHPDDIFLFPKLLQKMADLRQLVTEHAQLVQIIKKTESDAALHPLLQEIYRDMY

What was measured:
[1] = Cell Proliferation Assay against the HBL1 Cell Line (AID 651646; active means well fitted curve in the direction sought with a large enough effect; an effect the other way counts as inactive or inconclusive;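 further: cells exposed to compound for 48 h before reading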); details: HBL1 DLBCL cells; at 46.1 µM (top of the series) unless noted
Procedure, shortened: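 Luminescent ATP read-out (CellTiter-Glo) after 48 h compound exposure of HBL1 cells at 37 °C; percent activity was scaled between DMSO as 100% and 9.2 uM bortezomib (final) as 0%.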

[2] = AP1 Signaling Pathway (AID 357); details: ME-180 AP-1-bla reporter, EGF-induced, beta-lactamase ratio, 5 h; at 7.69 µM (top of the series) unless noted; further: on the % scale 0 is the no-effect control and ±100 the full control effect
Procedure, shortened: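 ME-180 cells with beta-lactamase reporter under AP-1 response element, stimulated with EC50 EGF; compounds tested in titration series, 5 h at 37 °C. CCF4 substrate added 2.5 h at room temperature; 460/530 nm emission ratio gave %activity and AC50.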

[3] = NFAT Signaling Pathway (AID 444); details: Jurkat NFAT-bla M1, carbachol, beta-lactamase ratio, 5 h; at 7.69 µM (top of the series) unless noted;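 further: carbachol stimulus at about its EC50 of 1 µM final; on the % scale 0 is the no-effect control and ±100 the full control effect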
[4] = Stat Signaling Pathway (AID 446); details: ME-180 (cervical carcinoma) SIE beta-lactamase reporter, IL-6 stimulated, 5 h; at 7.69 µM (top of the series) unless noted;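 further: ME-180 cervical cancer cells given 40 pM IL-6 alongside compound; SIE-controlled beta-lactamase reporter measured as 460/530 nm FRET emission ratio; on the % scale 0 is the no-effect control and ±100 the full control effect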
Procedure, shortened: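 IL-6/STAT signaling read in ME-180 cells via an SIE beta-lactamase reporter. Stimulus was 40 pM IL-6 (its AC50) for 5 hrs, so both activation and inhibition register.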

[5] = target: Mitogen-activated protein kinase 10 (Mus musculus) (UniProt Q61831); experiment: JNK3 AlphaScreen Assay (AID 530); details: JNK3 lysate, c-Jun phosphorylation; at 11.4 µM (top of the series) unless noted;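 further: kinase came from lysate of stimulated human HepG2 cells; signal reports phosphorylation of biotinylated GST-cJun 1-79 at Ser73 with 10 µM ATP; on the % scale 0 is the no-effect control and ±100 the full control effect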
Procedure, shortened: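 Room-temperature AlphaScreen kinase assay; pre-activated HepG2 lysate as JNK3 source, biotin-GST-cJun(1-79) substrate, 10 uM ATP, compound 15 min preincubation.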

[6] = target: 3',5'-cyclic-AMP phosphodiesterase 4B (Homo sapiens) (UniProt Q07343); experiment: qHTS Assay for Inhibitors of PDE-IV (AID 607; active means well fitted activation curve with a large enough effect in the main read-out, with a control signal flat, not every such curve was filed as active; further: % of control where 0% means no effect); details: HEK293 ACTOne CNG channel cells, membrane potential fluorescence; at 22.9 µM (top of the series)
Procedure, shortened: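 Live HEK293 cells with a modified cyclic nucleotide-gated (CNG) channel report intracellular cAMP via membrane-potential dye fluorescence (ex 535/em 590 nm). Endogenous PDE-IV was targeted. Compounds were tested at up to 22.9 uM final; RO 20-1724 100 uM served as control.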

[7] = target: Glucocorticoid receptor (Homo sapiens) (UniProt P04150); experiment: qHTS assay for small molecule agonists of glucocorticoid receptor signaling (AID 588532; active means well fitted curve in the direction sought with a large enough effect in the signal ratio, with a control signal flat; the % refers to the signal ratio;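 further: 100% = dexamethasone at 0.1 µM and 0% = DMSO only wells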); details: HeLa MMTV-bla, beta-lactamase ratio, agonist, 18 h; stronger effect = higher value
[8] = target: Vitamin D3 receptor (Homo sapiens) (UniProt P11473); experiment: qHTS assay for small molecule agonists of vitamin D receptor signaling (AID 588543; calls by dose curve;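 further: 0% = DMSO basal and 100% = reference agonist control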); details: HEK293T VDR-UAS-bla, beta-lactamase ratio, 16 h; at 76.8 µM (top of the series)
Procedure, shortened: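 Agonist-mode beta-lactamase reporter: HEK293T VDR-UAS-bla cells in charcoal-stripped 2% FBS, compound series 16 h 37 C, CCF4 2 h RT. EC50 from Hill fit, scaled against DMSO and 50 nM calcitriol control.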

[9] = target: Thyroid hormone receptor beta (Homo sapiens) (UniProt P10828); experiment: qHTS assay for small molecule agonists of thyroid hormone receptor beta signaling (AID 588545; calls by dose curve;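 further: 0% = DMSO only and 100% = 10 nM T3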); details: TR-UAS-bla GripTite HEK 293, beta-lactamase ratio, agonist mode, 18 h, percent of T3 response, DMSO as zero; at 76.7 µM (top of the series)
Procedure, shortened: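 TR-UAS-bla-GripTite HEK 293 cells in medium with 2% charcoal/dextran FBS, 0.1 mM NEAA and 1 mM sodium pyruvate were treated with titrated compounds for 18 hrs at 37 C. Beta-lactamase reporter was read with CCF4 dye (ex 405, em 460/530 nm); EC50 from Hill fits.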

[10] = target: Retinoic acid receptor RXR-alpha (Homo sapiens) (UniProt P19793); experiment: qHTS assay for small molecule antagonists of retinoid X receptor alpha signaling (AID 588546; active means well fitted inhibition curve with a large enough effect in the signal ratio, with a control signal flat, not every such curve was filed as active; the % refers to the signal ratio); details: HEK293T RXRa-UAS-bla, beta-lactamase ratio, antagonist mode
Procedure, shortened: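 Beta-lactamase reporter inhibition, read as CCF4 fluorescence ratio (ex 405, em 460/530 nm) after 2 h at RT. HEK293T UAS-bla cells, 2500/well, were stimulated with 9-cis-RA at 500 or 100 nM final alongside test compound for 18 h at 37 C.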

[11] = qHTS assay for environmental chemicals that activate the Aryl hydrocarbon Receptor (AhR) signaling pathway (AID 651777; active means well fitted curve in the direction sought with a large enough effect; an effect the other way counts as inactive or inconclusive; further: % of control where 0% means no effect; nearly all actives have a fitted effect of over 15% in size); details: 1A2-DRE human hepatoma cells, luciferase, 24 h; stronger effect = higher value
Procedure, shortened: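 Reporter gene assay: hepatoma cells with DRE/CYP1A2-luciferase, 24 hr compound incubation at 37 C, 5% CO2, luminescence after One-Glo (30 min, RT).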

[12] = target: Peroxisome proliferator-activated receptor alpha (Homo sapiens) (UniProt Q07869); experiment: qHTS assay for small molecule agonists of the peroxisome proliferator-activated receptor alpha (PPARalpha) signaling pathway (AID 651778; active means well fitted curve in the direction sought with a large enough effect; an effect the other way counts as inactive or inconclusive; further: % of control where 0% means no effect); details: PathHunter PPARalpha complementation, chemiluminescence, 6 h; stronger effect = higher value
[13] = qHTS assay for small molecule agonists of the antioxidant response element (ARE) signaling pathway measured by Nrf2-dependant transcriptional activity (AID 720636; active means well fitted curve in the direction sought with a large enough effect in the repeat runs; an effect the other way counts as inactive or inconclusive;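 further: HepG2 cells with an ARE-driven luciferase reporter; % of control where 0% means no effect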); details: ARE-luc HepG2, Nrf2 luciferase reporter, 16 h; at 92.4 µM (top of the series)
[14] = qHTS assay for small molecule agonists of the antioxidant response element (ARE) signaling pathway measured by Nrf2-dependant transcriptional activity - cell viability counter screen (AID 720653; active means well fitted curve in the direction sought with a large enough effect in the repeat runs; an effect the other way counts as inactive or inconclusive; further: on the % scale 0 is the no-effect control and ±100 the full control effect); details: ARE-bla HepG2 viability, CellTiter-Glo ATP luminescence, 16 h; stronger effect = lower value
Procedure, shortened: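 Cytotoxicity counter screen: intracellular ATP quantified by CellTiter-Glo luminescence in the same ARE-bla HepG2 plates, after 16 h compound exposure and a 2 h beta-lactamase substrate step.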

[15] = qHTS assay for cell viability of HEK293 cells (AID 743288; active means well fitted curve in the direction sought with a large enough effect; an effect the other way counts as inactive or inconclusive; further: on the % scale 0 is the no-effect control and ±100 the full control effect; nearly all actives have a fitted effect of over 50% in size); details: ATP luminescence (CellTiter-Glo), 18 h; max response: stronger effect = lower value
Procedure, shortened: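 Total intracellular ATP, measured with a luciferase-coupled reagent, indicates the number of viable HEK293 cells. Exposure to test chemicals lasts 18 h at 37 C in 1,536-well format at 2,000 cells/well.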

[16] = Cell Proliferation Assay against the TMD8 Cell Line (AID 651645; active means well fitted curve in the direction sought with a large enough effect; an effect the other way counts as inactive or inconclusive;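 further: cells exposed to compound for 48 h before reading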); details: TMD8 DLBCL cell line proliferation/viability; at 46.1 µM (top of the series)
Procedure, shortened: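 Viability by CellTiter-Glo after 48 h compound exposure of 500 log-phase TMD8 cells per well (RPMI, 5% FBS). Percent activity scaled between DMSO (100%) and 9.2 uM final bortezomib (0%).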

Nc1nc(Cl)nc2c1ncn2[C@H]1C[C@H](O)[C@@H](CO)O1
68.9% [at 92.2 µM]: viability, percent of control [1]

NC(=O)Nc1cc([As](=O)(O)O)cc(I)c1O
inactive: activity change, negative = inhibition [2] -5.16% | activity change, negative = inhibition [3] 9.12% | activity, negative = inhibition [4] 5.03% | activity change, negative = inhibition [5] 2.72% | activation (PDE inhibition) [6] 9.41%

CC(C)OP(=S)(OC(C)C)SCCNS(=O)(=O)c1ccccc1
inactive: activation [7] 7.34% and -3.15% | activation [8] 5.75% and 5.24% | activation [9] -5.32% and -4.91% | max response [10] -7.89% | activation [11] 4.97% and 3.74% | max response [12] 0.499% and -3.69% | activation [13] -0.915% and -2.25% | max response [14] -19.9% and 8.76% | max response [15] -7.87% and -2.91%

O=C(CC(=O)c1ccccc1)O[C@H]1CN2CCC1CC2
inactive: activity change, negative = inhibition [2] -3.22% | activity, negative = inhibition [4] 0.783% | activity change, negative = inhibition [5] 2.4% | activation (PDE inhibition) [6] 10.9%

Cc1cccc(OCC(=O)OC2CN3CCC2CC3)c1 (configuration not stated)
inactive: activity change, negative = inhibition [2] -0.747% [at 17.2 µM] | activity, negative = inhibition [4] -1.78% [at 17.2 µM]

CC(=O)NC(C)c1ccc(Oc2ccc(OC(C)C)cc2)cc1 (configuration not stated)
72%: viability (% of control) [16]

[N-]=[N+]=NCC(O)CN=[N+]=[N-] (configuration not stated)
inactive: activity change, negative = inhibition [2] 5.82% | activity change, negative = inhibition [3] 7.83% | activity, negative = inhibition [4] 3.67% | activity change, negative = inhibition [5] -0.0177% | activation (PDE inhibition) [6] 0.863%

[N-]=[N+]=Nc1ccc([As](=O)(O)O)cc1
inactive: activity change, negative = inhibition [2] 3.4% | activity change, negative = inhibition [3] 16.2% | activity, negative = inhibition [4] -2.09% | activity change, negative = inhibition [5] 1.4% | activation (PDE inhibition) [6] -0.71%
